scFv variants of Ab-14 (heavy chain) against a SARS-CoV-2 spike peptide

Values reported by Li et al. 2023, doi:10.1038/s41467-023-39022-2 (FLAb copy).

Antigen: PDVDLGDISGINAS, a 14-residue peptide of the SARS-CoV-2 spike HR2 region.

The variants keep the light chain, the linker and the frameworks of Ab-14 (scFv order VH, the linker GGGGSGGGGSGGGGS, VL).
VH: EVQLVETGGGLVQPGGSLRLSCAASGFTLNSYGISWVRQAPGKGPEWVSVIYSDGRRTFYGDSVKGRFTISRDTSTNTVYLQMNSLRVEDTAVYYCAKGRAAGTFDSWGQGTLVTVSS
VL: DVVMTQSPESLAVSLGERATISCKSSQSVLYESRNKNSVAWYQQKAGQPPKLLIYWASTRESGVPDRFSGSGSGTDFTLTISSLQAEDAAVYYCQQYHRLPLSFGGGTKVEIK

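The parent was found by panning a naive human phage display library on the peptide. This is the validation round: designs drawn from the data on random variants, tested in the same kind of assay. Group labels follow the data file (Ctrl: baseline library sampled from a position-specific scoring matrix, with some repeated check sequences; Rand: our label for a block that the file lists under HC and that is probably the random mutants of the ten best first-round binders; GP: Gaussian process model; GPLM: also part of the Gaussian process libraries; HC: hill climbing; Gen: genetic algorithm; Gibbs: Gibbs sampling; a sequence that several methods proposed may carry one label only). The scFvs were displayed on barcoded MATa yeast, the peptide on MATalpha yeast. The frequency of each diploid, read from paired DNA barcodes, reflects how well the two displayed proteins bind. Read counts were normalised to the haploid input and turned into Kd by a linear fit to BCL2-family pairs of known affinity, for each replicate. There are six technical replicates.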

Positions count from residue 1 of the parent VH; S31D puts D in place of S. Variants here have at most six changes. The read-out is the apparent dissociation constant on a log10 scale (nM): the lower, the stronger. The mean shown is taken over the replicates in which the pair was detected. Where no diploid with the target was found in any replicate, the entry reads "nd": below detection, most likely a poor binder, though not proof of it. Values of this round are not directly comparable with the first-round values of the same sequences. The parent sequence was in this pool as ten entries: three were never detected, three once, and four in most replicates, with averages from 0.34 to 2.37. Background: pairings of all heavy chain designs with three empty control strains gave a value in 1% of cases (median 2.08, 5th percentile 0.84). Values in that range, when seen in few replicates, are hard to tell from nonspecific mating. The authors' rule: three or more of the six replicates give a measured affinity, fewer mean a poor binder.

For S31D+D106R [GPLM_HC], the assay gave nd (0 of 6 replicates). The variant N30K+S53A+S107N [GP_Gibbs] gave 1.51 (6 of 6 replicates). The variant R56Q+G61T+R100H [Ctrl] gave 2.55 (1 of 6 replicates). With T104F+S107L [Ctrl] the result was nd (0 of 6 replicates). With K65V+A101P+S107Y [Ctrl] the result was nd (0 of 6 replicates).

The variant N30Q+S53A+R100Q [GP_HC] gave 0.64 (4 of 6 replicates). For T28N+S31E+A101N [GP_Gen], the assay gave -0.25 (6 of 6 replicates). For T28D+R100N+S107Q [GP_Gen], the assay gave 0.64 (6 of 6 replicates). For T28K+G61I+R100Q+A101L [GP_HC], the assay gave nd (0 of 6 replicates). For T104V+S107W [Ctrl], the assay gave nd (0 of 6 replicates).

For T28D+G61I+R100K+A101E [GP_Gen], the assay gave -0.06 (6 of 6 replicates). With T28W+S31E+G61H+A101I [GP_Gibbs] the result was 0.76 (6 of 6 replicates). With T28Q+S31E+G61M+A101F [GP_HC] the result was 1.58 (4 of 6 replicates). The variant R56C+S63A [Ctrl] gave nd (0 of 6 replicates). The variant N30E+S53A+D106W [GP_HC] showed nd (0 of 6 replicates).

For R56I+G61A [Ctrl], the assay gave 0.42 (6 of 6 replicates). The variant S31Q+R56V+G61S [GPLM_HC] showed 0.31 (6 of 6 replicates). With S31D+F59Q+G61I+R100A [Rand] the result was 0.72 (6 of 6 replicates). For T28E+G61A+A101I [GP_Gen], the assay gave 1.26 (6 of 6 replicates). For F59A+G61S+R100Q [GPLM_Gen], the assay gave 1.16 (6 of 6 replicates).

With S53R+S63Q+D106C [Ctrl] the result was 2.59 (1 of 6 replicates). With T28D+R100K+A101T+S107F [GP_Gen] the result was 0.21 (6 of 6 replicates). The variant G61S+G99I+F105M [Ctrl] showed nd (0 of 6 replicates). With F59M [Ctrl] the result was 0.98 (5 of 6 replicates). The variant S31E+F59Q+G61D [GP_HC] gave 1.38 (6 of 6 replicates).

With T28N+G61A+S63Q+A101Q [GP_Gibbs] the result was 1.46 (6 of 6 replicates). The variant R100V [Ctrl] gave 1.72 (4 of 6 replicates). The variant T28Q+S63N [GP_HC] showed nd (0 of 6 replicates). The variant S31E+S63E+G103V+S107Q [GP_HC] showed 1.66 (3 of 6 replicates). The variant T28V+S31D+G61T+A101T [GP_Gibbs] showed 0.88 (4 of 6 replicates).

With S31L+K65R+A102K [Ctrl] the result was nd (0 of 6 replicates). The variant T28Q+S31E+R57G+G99D+G103V+S107Q [Rand] showed nd (0 of 6 replicates). For T28L+S31D+R100K [GP_HC], the assay gave 1.76 (6 of 6 replicates). With Y52L+R56C+F59A [Ctrl] the result was nd (0 of 6 replicates). The variant F59A+S63N+A101Q [Ctrl] gave 0.70 (6 of 6 replicates).

With T28S+N30R+S31E+G61T+D106L [Ctrl] the result was 2.47 (1 of 6 replicates). The variant G26E+T28D+A101Q [GP_HC] gave 0.11 (6 of 6 replicates). The variant T28D+R100Q+T104H+D106N [GP_HC] showed 1.36 (5 of 6 replicates). For G33L+G55V+G61S+A102G [Rand], the assay gave nd (0 of 6 replicates). The variant S31Q+R56Q+S63K+G103D+S107D [Ctrl] showed nd (0 of 6 replicates).

For S31N+F59A+G61Q+V64T+F105T+S107Q [Ctrl], the assay gave 1.45 (6 of 6 replicates).

Picked from the list: the 4 lowest averages where every replicate gave a value.

changes	group	mean log10 Kd (nM)	detected
T28N+S31E+A101N	GP_Gen	-0.25	6/6
T28D+G61I+R100K+A101E	GP_Gen	-0.06	6/6
G26E+T28D+A101Q	GP_HC	0.11	6/6
T28D+R100K+A101T+S107F	GP_Gen	0.21	6/6